We go through 4 compounds from ChEMBL document CHEMBL5034004, “Discovery of M3 Antagonist-PDE4 Inhibitor Dual Pharmacology Molecules for the Treatment of Chronic Obstructive Pulmonary Disease” (J Med Chem, 2021).

Chains of the proteins cited; added tags and fusions are not shown. Lines headed by an entry give the natural chain unless they say otherwise; changes in a name come on top.
UniProt P20309, whole entry: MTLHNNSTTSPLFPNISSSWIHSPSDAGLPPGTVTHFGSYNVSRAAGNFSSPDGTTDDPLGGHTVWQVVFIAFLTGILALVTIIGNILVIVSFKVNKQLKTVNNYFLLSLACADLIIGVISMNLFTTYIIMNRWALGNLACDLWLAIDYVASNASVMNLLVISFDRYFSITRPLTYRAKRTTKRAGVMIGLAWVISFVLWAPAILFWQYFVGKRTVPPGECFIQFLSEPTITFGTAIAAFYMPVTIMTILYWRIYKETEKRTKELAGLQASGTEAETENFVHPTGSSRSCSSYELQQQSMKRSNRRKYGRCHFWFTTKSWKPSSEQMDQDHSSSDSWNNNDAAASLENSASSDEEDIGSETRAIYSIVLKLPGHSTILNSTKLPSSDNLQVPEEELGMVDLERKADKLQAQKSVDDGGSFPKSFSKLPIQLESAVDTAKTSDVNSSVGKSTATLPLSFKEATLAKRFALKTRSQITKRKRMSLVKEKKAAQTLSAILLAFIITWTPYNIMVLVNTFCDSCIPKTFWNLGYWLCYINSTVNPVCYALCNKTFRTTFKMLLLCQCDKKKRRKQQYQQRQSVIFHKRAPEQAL
UniProt Q07343: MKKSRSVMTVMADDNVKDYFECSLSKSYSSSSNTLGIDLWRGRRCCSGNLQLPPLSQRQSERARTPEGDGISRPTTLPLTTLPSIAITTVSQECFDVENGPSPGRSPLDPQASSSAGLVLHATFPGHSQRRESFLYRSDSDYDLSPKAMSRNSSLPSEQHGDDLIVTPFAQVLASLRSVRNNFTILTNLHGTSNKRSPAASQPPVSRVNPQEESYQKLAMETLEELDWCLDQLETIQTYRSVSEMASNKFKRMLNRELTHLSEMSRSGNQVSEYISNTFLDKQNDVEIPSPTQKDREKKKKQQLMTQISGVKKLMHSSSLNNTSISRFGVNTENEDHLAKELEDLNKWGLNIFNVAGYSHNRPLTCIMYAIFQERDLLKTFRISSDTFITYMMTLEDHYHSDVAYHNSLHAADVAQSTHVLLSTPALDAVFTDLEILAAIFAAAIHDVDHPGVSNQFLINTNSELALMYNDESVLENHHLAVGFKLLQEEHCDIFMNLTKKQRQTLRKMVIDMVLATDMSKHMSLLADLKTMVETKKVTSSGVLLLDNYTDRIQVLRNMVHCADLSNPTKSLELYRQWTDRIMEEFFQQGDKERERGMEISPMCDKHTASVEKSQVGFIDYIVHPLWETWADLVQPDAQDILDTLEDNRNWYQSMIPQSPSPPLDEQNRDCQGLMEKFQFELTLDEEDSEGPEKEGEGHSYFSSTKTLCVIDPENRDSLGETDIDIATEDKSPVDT

The target in test [1] is Muscarinic acetylcholine receptor M3 (Homo sapiens, UniProt P20309). The test is described as follows: Displacement of [3H]-N-methyl Scopolamine Chloride from human M3 receptor membranes incubated for 2 hrs by scintillation counting analysis. It is filed as cell membranes, Cell membrane. On the technique in general: In a radioligand displacement assay an active substance lowers the binding of a labelled ligand.

Test [2] addresses 3',5'-cyclic-AMP phosphodiesterase 4B (Homo sapiens, UniProt Q07343). The test is described as follows: Inhibition of human recombinant PDE4B2 assessed as […] in cAMP level incubated for 2 hrs by LANCE Ultra cAMP TR-FRET assay. A general note: cAMP levels reflect the balance of adenylyl cyclase and phosphodiesterase activity.
Test [3] can be described thus: Antiinflammatory activity in human PBMCs assessed as inhibition of LPS-induced TNF-alpha release measured after 18 hrs by ELISA. Format: functional, tissue-based. Particulars: pbmc. Background: ELISA stands for enzyme-linked immunosorbent assay.

For `COc1ccc([C@H](Cc2c(Cl)c[n+]([O-])cc2Cl)OC(=O)c2ccc(CNC(C(=O)OCC3CCN(C)CC3)c3ccccc3)s2)cc1OC` (stereo in doubt; 91h), the affinity in test [1], expressed as Ki, was 10 nM.

In the case of `COc1ccc([C@H](Cc2c(Cl)c[n+]([O-])cc2Cl)OC(=O)c2ccc(CNC(C(=O)OC[C@H]3CCN3C)c3ccccc3)s2)cc1OC` (stereo in doubt; 91i), in test [1], the Ki (commonly the dissociation constant of the complex between target and ligand, obtained from inhibition or displacement) was 2.51 nM. Further, the IC50 (usually the concentration at which inhibition is half-maximal) in test [2] was 2.51 nM.

In turn, `COc1ccc([C@H](Cc2c(Cl)c[n+]([O-])cc2Cl)OC(=O)c2ccc(CNC(C(=O)OCC3CCN(C)CC3)c3ccccc3)s2)cc1OC` (stereo in doubt; 92h) gave a Ki in test [1] of 0.316 nM.

`COc1ccc([C@H](Cc2c(Cl)c[n+]([O-])cc2Cl)OC(=O)c2ccc(CNC(C(=O)OC[C@H]3CCN3C)c3ccccc3)s2)cc1OC` (stereo in doubt; 92i): the affinity in test [1] corresponds to a Ki of 0.2 nM. Further, the IC50 in test [2] is 1.26 nM. In addition, the pIC50 (commonly the negative decadic logarithm of the IC50, by convention in mol/L) in test [3] is reported as 8.6.
